High-throughput results deposited in PubChem by several laboratories.
Yeast UUG start: modulators of start codon recognition fidelity in yeast; S. cerevisiae UUG-firefly luciferase reporter, luminescence/redox ratio; activity score, % at 18.7 µM; hit rate 0.13% among 350,000; AID 602363;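 active = replicate mean at a twofold rise or more, about +100% in these data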;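 note: firefly luciferase made from a UUG start codon reports start codon fidelity; reporter light over untreated wells divided by growth signal over untreated wells; some hits fall short of that in this replicate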
ALR inh: human ALR oxidase inhibition via reduced H2O2; P55789; 290,000 tested, 3.8% active; inhibition, % (no concentration beside the values); purified ALR, DTT oxidation, H2O2 HRP-luminol luminescence; AID 485317;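 active = mean and each replicate at 75% or more; inconclusive = only one of the two met; inactive = neither met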;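 note: stock transfer was 7.5 nL into about 7.5 µL; 0% = neutral wells and 100% = wells with inactivated enzyme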
NALP1 yeast inh: NALP1 inflammasome inhibitors in reconstituted yeast, colorimetric, S. cerevisiae, triplicate retest | inhibition, % at 10 µM | AID 2071, 2009 | S. cerevisiae NALP1/ASC/caspase-1 growth, X-gal OD620, 72 h | 280,000 tested, 0.61% active; in the data active = inhibition mostly above about 24%, no sharp cut-off; inactive = mostly below about 32%
MC4R ag barr: MC4R agonists recruiting beta-arrestin, primary screen, cell-based, luminescence, agonist arm of biased-ligand search. Melanocortin receptor 4 (Homo sapiens), P32245. U2OS MC4R beta-arrestin complementation; percent of melanotan II response, DMSO zero. activation, % at 8.9 µM. 360,000 tested, 0.98% active. AID 540308, 2011;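 active = activation above a per-plate cutoff, the mean activation of sample wells on that plate plus 3 SD, cut at about 8% in these data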
HDAC3 inh: HDAC3 deacetylase inhibitors, primary screen, biochemical, fluorescence, cell-free homogeneous. recombinant HDAC3, fluorogenic peptide/trypsin coupled. inhibition, % at 8.3 µM. 320,000 tested, 0.15% active. AID 2718, 2010; in the data active = inhibition above about 26%, passing the limit was not always enough
MC4R antagonist: MC4R antagonists of cAMP signaling, primary screen, cell-based, TR-FRET, antagonist arm of biased-ligand search. MC4R-expressing cells, MTII-stimulated cAMP, LANCE TR-FRET. 360,000 tested, 0.48% active. Melanocortin receptor 4 (Homo sapiens), P32245. AID 540295, 2011. inhibition, % at 6.5 µM;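 active = inhibition above its plate's cutoff, the mean of tested wells on that plate plus 3 SD, cut at about 29% in these data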;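 also: 0% = Melanotan II alone and 100% = Melanotan II plus saturating MCL0020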
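System: U2OS-MC4R stable cell line; Technique: Eu-cAMP/anti-cAMP TR-FRET, emission 671 nm; Repeats: single well per compound; Also added: Melanotan II; Dosing: one concentration, 6.5 µM nominal; Schedule: 30-min compound, 1-h challenge, 1-h detection, room temperature.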
The depositor's hits bear a star; . = no result. A selection: hits, their analogues and other compounds. The true share with any hit is near 4.2%.

By UniProt entry, the sequences of proteins in these tests, tags left out.
Melanocortin receptor 4 (Homo sapiens), P32245, UniProt P32245, whole entry, looked up: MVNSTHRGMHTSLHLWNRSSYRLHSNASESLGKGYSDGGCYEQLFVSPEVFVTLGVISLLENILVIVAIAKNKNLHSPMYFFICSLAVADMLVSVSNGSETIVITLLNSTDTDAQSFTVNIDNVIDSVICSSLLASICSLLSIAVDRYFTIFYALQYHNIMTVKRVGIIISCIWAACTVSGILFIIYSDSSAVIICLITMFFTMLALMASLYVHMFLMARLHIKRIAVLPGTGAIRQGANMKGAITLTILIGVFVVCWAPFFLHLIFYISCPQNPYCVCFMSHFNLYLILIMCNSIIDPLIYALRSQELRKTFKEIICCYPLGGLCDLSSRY

SMILES	Yeast UUG start	ALR inh	NALP1 yeast inh	MC4R ag barr	HDAC3 inh	MC4R antagonist
COCC#Cc1ccc2c(c1)O[C@H](CN(C)CC1CCOCC1)[C@@H](C)CN([C@H](C)CO)S2(=O)=O	30	.	.	.	.	.
Cc1[nH]n2c(=O)cc(-c3ccc([N+](=O)[O-])cc3)nc2c1-c1ccccc1	-26	89*	.	-6	12	-1
CCCc1cc(=O)n2[nH]c(C)c(-c3ccccc3)c2n1	-19	28	-1	-2	-5	9
Cc1[nH]n(-c2cccc([N+](=O)[O-])c2)c(=O)c1-c1ccccc1	-30	89*	-24	0	-10	10
Cc1[nH]n(-c2ccccc2)c(=O)c1-c1ccccc1	-12	70	-2	1	6	11
Cc1[nH]n(-c2cccc(Cl)c2)c(=O)c1-c1ccccc1	6	84*	4	-1	6	5
O=C(C[C@H]1C=C[C@@H](NC(=O)Nc2ccc(F)cc2)[C@H](CO)O1)NCc1cccc(F)c1	-3	.	.	.	.	.
C[C@H]1CN([C@@H](C)CO)C(=O)c2cccc(NS(=O)(=O)c3ccc(F)cc3)c2O[C@H]1CN(C)C(=O)Nc1cccc2ccccc12	-2	.	.	.	.	.
COCC(=O)Nc1ccc2c(c1)C(=O)N(C)[C@H]1CC[C@@H](CC(=O)NCCc3ccncc3)O[C@@H]1CO2	-1	.	.	.	.	.
O=C(NNC(=O)c1ccccc1O)c1ccc(Cl)c(S(=O)(=O)N2CCCCC2)c1	11	97*	.	-3	-6	5
O=C(O)c1cccc(CSc2n[nH]c(-c3ccc(Cl)cc3Cl)n2)c1	.	5	53*	-4	0	4
O=C(O)c1cccc(CSc2ncccn2)c1	-11	-2	8	-2	1	-6
COc1cccc(/C=C/C(=O)c2ccc(NC3=NCCCS3)cc2)c1	.	0	-11	-2	4	-18
Cc1cccc(/C=C/C(=O)c2ccc(NC3=NCCCS3)cc2)c1	.	50	62*	-4	9	-18
Cc1ccc(NCc2nnc(SCC(=O)c3ccc4c(c3)OCCO4)o2)c(C)c1	-18	-3	-4	2	85*	-1
Cc1ccc(NCc2nnc(SCC(=O)N3c4ccccc4Sc4ccccc43)o2)c(C)c1	-26	-8	25	0	10	2
CCCC#Cc1ccc2c(c1)O[C@H](CN(C)C(=O)C1CC1)[C@H](C)CN([C@H](C)CO)S2(=O)=O	26	.	.	.	.	.
COc1ccc(-n2c(=S)[nH]c3cc(C(=O)NC4CCCCC4)ccc3c2=O)c(OC)c1	-16	91*	0	-2	-6	14
CO[C@H]1CN(C)C(=O)c2ccc(NS(=O)(=O)c3ccc(C)cc3)cc2OC[C@H](C)NC[C@H]1C	-1	.	.	.	.	.
CCNC(=O)C[C@@H]1CC[C@@H]2[C@@H](COc3ccc(NC(=O)NC(C)C)cc3C(=O)N2C)O1	-8	.	.	.	.	.
CCCOc1ccc(NC(=O)c2c(-c3ccccc3)noc2C)cc1	-15	11	-4	2	1	5
Cc1onc(-c2ccccc2)c1C(=O)NC(=S)NNC(=O)c1ccc(O)cc1O	.	92*	23	0	3	28
CCCOc1ccc(C(=O)NC(=S)NNC(=O)c2c(-c3ccccc3)noc2C)cc1	-2	100*	15	-4	1	-1
CCCNC(=O)Nc1ccc2c(c1)OC[C@@H](C)N(C(=O)CC)C[C@@H](C)[C@@H](OC)CN(C)C2=O	6	.	.	.	.	.
CC(=O)Nc1sc(NC(=O)c2ccccc2)nc1-c1cccs1	-11	98*	-22	-1	4	5

Entries of single compounds as entered above:
CCNC(=O)C[C@@H]1CC[C@@H]2[C@@H](COc3ccc(NC(=O)NC(C)C)cc3C(=O)N2C)O1 is entered as Yeast UUG start: -8; ALR inh: .; NALP1 yeast inh: .; MC4R ag barr: .; HDAC3 inh: .; MC4R antagonist: .
COCC(=O)Nc1ccc2c(c1)C(=O)N(C)[C@H]1CC[C@@H](CC(=O)NCCc3ccncc3)O[C@@H]1CO2 is entered as Yeast UUG start: -1; ALR inh: .; NALP1 yeast inh: .; MC4R ag barr: .; HDAC3 inh: .; MC4R antagonist: .

Continued.
SMILES	Yeast UUG start	ALR inh	NALP1 yeast inh	MC4R ag barr	HDAC3 inh	MC4R antagonist
CC(=O)Nc1sc(N/N=C\c2ccc(O)cc2)nc1-c1cccs1	.	91*	-8	-2	-5	-1
COc1ccc(CNc2ccc3c(c2)ncn3-c2ccccc2OC)cc1	.	50	2	1	-1	0
COc1ccccc1-n1cnc2cc(NCc3ccccc3O)ccc21	-14	98*	0	1	3	-3
CCn1cnc2cc(NCc3cccc(OC)c3O)ccc21	-13	94*	-5	-1	-4	0
O=C(COc1cccc(Cl)c1)N/N=C\c1cc2ccccc2nc1Cl	2	-3	51	9.0*	-4	5
C[C@@H]1CCCCO[C@H](CN(C)Cc2ccc(Cl)c(Cl)c2)[C@H](C)CN([C@@H](C)CO)C(=O)c2cc(NS(C)(=O)=O)ccc2O1	0	.	.	.	.	.
C[C@@H]1CN([C@H](C)CO)C(=O)c2cc(NS(=O)(=O)c3ccccc3)ccc2O[C@@H](C)CCCCO[C@@H]1CN(C)C(=O)c1ccncc1	0	.	.	.	.	.
Cc1ccc(C)c(N2CCN(C(=O)COc3cc(=O)n(C)c4ccccc34)CC2)c1	-8	-3	6	0	-1	-13
Cc1ccc(C)c(N2CCN(C(=O)CCCOc3cc(=O)n(C)c4ccccc34)CC2)c1	6	-5	10	12*	4	4
Cc1cc(N2CCC(C)CC2)nc(-c2ccccc2O)n1	.	-16	30	3	-1	15
Cc1cc(Oc2ccc(Cl)cc2)nc(-c2ccccc2O)n1	-13	-3	32*	1	-2	0
Cc1ccc(Oc2cc(C)nc(-c3ccccc3O)n2)cc1	8	2	20	0	2	0
Cc1cc(OC2CCCCC2)nc(-c2ccccc2O)n1	-1	99*	18	0	3	19
COc1cccc(C(=O)N2C[C@@H]3[C@H](c4ccccc42)[C@@H](CO)N3Cc2ccccc2Cl)c1	6	.	.	.	.	.
CC1=NN(c2ccccc2)C(=O)C1/C=C1\NC(=S)NC1=O (stereo not given)	-7	89*	2	0	8	5
COc1cccc(/C=C/C(=O)OCC(=O)c2ccc(Br)cc2)c1	-6	.	.	-1	.	5
COc1cccc(/C=C/C(=O)OCC(=O)c2ccc3c(c2)NC(=O)CO3)c1	-13	0	.	8.5*	-5	11
O=C1COc2ccc(C(=O)/C=C/c3ccccc3)cc2N1	-8	97*	23	3	4	17
CCNC(=O)Nc1ccc2c(c1)C(=O)N(C)[C@@H]1CC[C@@H](CC(=O)NCc3ccccc3F)O[C@H]1CO2	-4	.	.	.	.	.
COCCNC(=O)CSc1ncnc2sccc12	-17	-12	38*	-2	0	7

Among those listed so far, these contain a nitro group on carbon.
SMILES	Yeast UUG start	ALR inh	NALP1 yeast inh	MC4R ag barr	HDAC3 inh	MC4R antagonist
Cc1[nH]n2c(=O)cc(-c3ccc([N+](=O)[O-])cc3)nc2c1-c1ccccc1	-26	89*	.	-6	12	-1
Cc1[nH]n(-c2cccc([N+](=O)[O-])c2)c(=O)c1-c1ccccc1	-30	89*	-24	0	-10	10
